Source: PubChem BioAssay AID1671193 (National Center for Advancing Translational Sciences (NCATS), 2021)
The entries are a selection whose mix differs from that of the whole data set. Results filed as inconclusive are left out. Calls of active or inactive are those of the source. Calls come from the whole dose curve; as a rule, active = well fitted cell-killing curve with a large enough effect; inconclusive = small, poorly fitted or top-dose-only effect, or effect the other way; inactive = flat fitted curve, though single readings scatter.

Assay: GF-AFC viability counterscreen for inhibitors of alpha-synuclein gene (SNCA) expression; note: nearly all actives have a fitted effect of over 30% in size
Details: HEK-293-SNCA-luc viability, GF-AFC fluorescence, 24 h; at 57.1 µM (top of the series) unless noted
Excerpt: Assay Submitter (PI): Daniel R. Scoles Ph.D.
Department of Neurology, University of Utah, Salt Lake City, Utah
Accumulation of alpha-synuclein is a main underlying pathological feature of Parkinson's disease (PD) and alpha-synucleinopathies, for which lowering expression of the alpha-synuclein gene (SNCA) is a potential therapeutic avenue. Using a cell-based luciferase reporter of SNCA expression we performed a quantitative high throughput screen (qHTS) of 155,885 compounds in dose response. The screening assay was generated using genome editing to insert the luciferase gene downstream and in frame of the SNCA gene in HEK-293 cells (1). A viability counterscreen using GF-AFC was used to eliminate cytotoxic and false positive compounds. After in silico analysis (clustering, removal of frequent hitter nuisance chemotypes), inhibitor compounds from the primary screen were selected for follow up and re-tested at 11-doses in the SNCA-luc cells (luciferase and GF-AFC confirmation), and in CMV-luc expressing cell line to flag general transcriptional repressors.
Described herein are the results of the GF-AFC viability counterscreen for SNCA inhibitors; inactivity (no decrease in fluorescence signal, not cytotoxic) is the desired output for this assay.
1. Dansithong, W., Paul, S., Scoles, D. R., Pulst, S. M., and Huynh, D. P. (2015) Generation of SNCA Cell Models Using Zinc Finger Nuclease (ZFN) Technology for Efficient High-Throughput Drug Screening. PLoS ONE 10, e0136930.
SEQUENCE No. (e.g., 1, 2, 3, etc.); […] (e.g., Cells, Incubation, Reagent, etc.); VALUE; DESCRIPTION
1; Cells; 4 uL; Dispense 1500 HEK-293-SNCA-luc cells/well into Greiner 1536-well white / solid bottom tissue culture treated plate. The plate was covered with metal lids with gas-exchange holes.
2; Incubate; 24 hours; Incubate at 37C, 5% CO2, 95% RH.
3; Compounds; 23 nL; Compounds and controls were transferred via a Kalypsys Pin Tool (Wako USA) equipped with a 1536-slotted pin array. The plate was covered with metal lids with gas-exchange holes.
4; Incubate; 24 hours; Incubate at 37C, 5% CO2, 95% RH.
5; Dispense; 1 uL; Dispense Gly-Phe-7-amino-4-trifluoromethylcoumarin (GF-AFC, prepared at 125 uM in PBS) was added. The plate was covered with metal lids with gas-exchange holes.
6; Incubate; 30 min; Incubate at 37C, 5% CO2.
7; Detector; Fluorescence; Measure fluorescence with ViewLux microplate reader (PerkinElmer) equipped with 405/10 excitation and 540/25 emission filters.
8; Dispense; 3 uL; Dispense ONE-Glo ([…]) lucifase detection reagent was added to each well. Plates were covered with metal lids with gas-exchange holes.
9; Incubate; 15 min; Incubate at room temperature.
10; Detector; Luminescence; Measure luminescence with ViewLux microplate reader (PerkinElmer) equipped with clear filters.
NOTES (numbers refer to sequence above)
1; HEK-293-SNCA-luc were cultured and suspended in phenol-red free DMEM (4.5 g/L glucose, 25 mM HEPES, cat #21063 (Thermo)).
3; Compounds were added to the assay plate in an 11-point intra plate dose response, 1:3 titration in DMSO with a final concentration range of […]. Vehicle-only plates, with DMSO being pin-transferred to every well, were inserted at the beginning of screening runs to confirm expected assay performance. Activity was normalized to wells containing medium only (-100% activity, full inhibition) and SNCA-luc cells treated with DMSO vehicle control (0% activity), contained on the same plate as test samples.
10; Signals were analyzed, and dose-response curves were fit using the Hill equation. Compounds in curve classes -1.1, -1.2, -2.1, -2.2 in the SNCA-luc assay were considered active. Compounds were eliminated from further consideration if also active (curve class -1.1, -1.2, -1.3, -1.4, -2.1, -2.2, -2.3, -2.4) in the GF-AFC cytotoxicity assay.

| SMILES | activity change, negative = cytotoxicity |
| --- | --- |
| Cc1ccccc1C(=O)NCC1(N(C)C)CCCCC1 | inactive: -8.44% |
| CC(C)(C)c1ccc(C(=O)NCC2(N3CCOCC3)CCCCC2)cc1 | inactive: 9.71% |
| CN(C)C1(CNC(=O)c2ccc(C(C)(C)C)cc2)CCCCC1 | inactive: -5.12% |
| CC(=O)N1CCc2ccc(N(C(=O)/C=C/c3cccc(C#N)c3)C3CCN(CCC4CCCC4)CC3)cc21 | inactive: -16.7% |
| COc1cc(C(=O)NCC2(N3CCOCC3)CCCCC2)cc(OC)c1OC | inactive: -6.55% |
| CCC(=O)N(c1ccccc1)C1CCNCC1 | inactive: -15.4% [at 23.9 µM] |
| O=C(NCC1(N2CCOCC2)CCCCC1)c1ccccc1 | inactive: -7.91% |
| O=C(NCC1(N2CCOCC2)CCCCC1)c1ccccc1[N+](=O)[O-] | inactive: 6.6% |
| O=C(NCC1(N2CCOCC2)CCCCC1)c1ccc([N+](=O)[O-])cc1 | inactive: 2.46% |
| CCCOc1cccc(C(=O)NCC2(N3CCOCC3)CCCCC2)c1 | inactive: -10.7% |
| CCOc1ccc(C(=O)NCC2(N3CCOCC3)CCCCC2)cc1 | inactive: 0.807% |
| O=C(NCC1(N2CCOCC2)CCCCC1)c1ccccc1Br | inactive: -5.43% |
| CCOC(=O)N1CCC(=O)CC1 | inactive: 1.28% [at 23.9 µM] |
| CCOC(=O)C(=O)CBr | inactive: -3.7% |
| O=C(NCC1(N2CCOCC2)CCCCC1)c1ccc(Cl)cc1 | inactive: -3.03% |
| COc1ccccc1C(=O)NCC1(N2CCOCC2)CCCCC1 | inactive: -16.2% |
